Results as given in US20060036073A1, “Neurotrophic and neuroprotective peptides” (priority 2002, published 2006).

How the values were obtained:
[1] = test system: amyloid-beta peptides (β-amyloid 25-35) / nerve cell cultures; assay: Amyloid-beta aggregation assay (peptide added to fresh amyloid-beta solution, effect on nerve cell cultures); format: cell-based, chicken
Experimental: Beta-Amyloid peptides represent, in aggregated form, a potent neurotoxin whose addition to the nerve cell cultures results in a quick and progressive cell death. Since beta-amyloid peptides constitute an essential role in the pathogenesis of Alzheimer's disease, this model can be considered especially relevant.
This biological test is a process for testing anti-aggregatory substance potential that is specially developed for this project. The newly synthesized peptides are added directly to a fresh solution of amyloid-beta peptides to prevent the formation of neurotoxic aggregates. The effect that aggregates that still develop have on growth and survival of nerve cell cultures is the measurement parameter.

[2] = test system: cortical neurons that are obtained from chicken embryos; assay: Chronic disruption of the calcium metabolism by ionomycin, neuron viability by MTT; format: cell-based; conditions: ionomycin 10 μM, 24 hours
Experimental: It is common to these biological test systems that cortical neurons that are obtained from chicken embryos are cultivated in culture plates for eight days and then are exposed to a specific noxa (Pettmann et al., Nature 281 (5730): 378-80 [1979]).
To this end, a one-day-old, fertilized hen's egg is incubated for eight days at +12 +/− 0.1° C. and 80 +/− 5% atmospheric humidity. On the embryonal day 0, the eggs are transferred into an incubator and incubated up to the embryonal day 8 at 38 +/− 0.5° C. and 55 +/− 5%. After the brains are removed, the cortices are isolated, homogenized, and neurons are taken into primary culture (culture conditions: Dulbecco's Modified Eagle's Medium, 20% v/v fetal calf serum, 0.01% gentamicin, 1 g/l of glucose, 2 mmol of L-glutamine, +37° C., 5% CO2 and 95% atmospheric humidity). […] After the end of the specified stress period, the proportion of the still living neurons is determined with a metabolic colorimetric assay (the reaction of the yellow chromophore MTT to a blue formazan product is carried out only by living cells).
It is expected that in the case of various neurodegenerative diseases, chronic calcium overloading occurs because of metabolic malfunctions, which ultimately produces cell death via the activation of various enzyme systems. […]

[3] = test system: cortical neurons that are obtained from chicken embryos; assay: Summary of the screening over all neuroprotection assays; format: cell-based
Experimental: Since the targets of the therapy with the peptides presented according to the invention are various neurodegenerative diseases, different model systems for detecting the biological activity of the peptides according to the invention in the case of neurodegenerative diseases were used. Later, the individually used model systems and the results thus achieved are described. […] That is to say, the implementation of the tests was carried out on different days with different cell preparations and by different individuals. For some peptides, two numbers were issued (#1=#23 or #6=#35 or #7=#43), but the results with these peptides were only shown once. […] With some other substances, there were problems in the production, and thus only small amounts were available, and it was not possible to test the substances in all the assays (#12, 14, 17, 35 and #48). […] As could be seen from the figures, the standard deviations, i.e., the fluctuations between the independent experiments, are to some extent quite large. These fluctuations can be attributed to stability problems. These peptides are the peptides that are preferred within the scope of the invention.

CSCC[C@H](NC(=O)[C@H](CO)NC(=O)[C@H](CC(C)C)NC(=O)CNC(=O)[C@H](CCCCN)NC(=O)[C@H](CCSC)NC(=O)[C@H](Cc1ccccc1)NC(=O)[C@@H](NC(=O)[C@@H](N)CC(=O)O)C(C)C)C(=O)N[C@@H](C)C(=O)N[C@@H](CCCCN)C(=O)N[C@@H](CCC(=O)O)C(=O)NCC(=O)N[C@H](C(=O)O)C(C)C [BH#1, DVFMKGLSMAKEGV]
AβP reagg. (diff vs C) ([1]; difference vs control, only one round of testing): 23%

CSCC[C@H](NC(=O)[C@H](CO)NC(=O)[C@H](CC(C)C)NC(=O)CNC(=O)[C@H](CCCCN)NC(=O)[C@H](CCSC)NC(=O)[C@H](Cc1ccccc1)NC(=O)[C@@H](NC(=O)[C@H](CC(=O)O)NC(=O)[C@@H](N)CCSC)C(C)C)C(=O)N[C@@H](C)C(=O)N[C@@H](CCCCN)C(=O)N[C@@H](CCC(=O)O)C(=O)O [BH#13, MDVFMKGLSMAKE]
increase in cell vitality to [2]: about 150% | Active in: (number of assays) ([3]; Table 2 summary): 5 of 7

CSCC[C@H](NC(=O)[C@H](CO)NC(=O)[C@H](CC(C)C)NC(=O)CNC(=O)[C@H](CCCCN)NC(=O)[C@H](CCSC)NC(=O)[C@H](Cc1ccccc1)NC(=O)[C@@H](NC(=O)[C@H](CC(=O)O)NC(=O)[C@@H](N)CCSC)C(C)C)C(=O)N[C@@H](C)C(=O)N[C@@H](CCCCN)C(=O)N[C@@H](CCC(=O)O)C(=O)NCC(=O)O [BH#12, MDVFMKGLSMAKEG]
effectiveness across the screening assays (in words) [3]: effective in only one screening assay

CSCC[C@H](NC(=O)[C@H](CO)NC(=O)[C@H](CC(C)C)NC(=O)CNC(=O)[C@H](CCCCN)NC(=O)[C@H](CCSC)NC(=O)[C@H](Cc1ccccc1)NC(=O)[C@@H](NC(=O)[C@@H](N)CC(=O)O)C(C)C)C(=O)N[C@@H](C)C(=O)N[C@@H](CCCCN)C(=O)N[C@@H](CCC(=O)O)C(=O)NCC(=O)O [BH#24, DVFMKGLSMAKEG]
increase of neuronal vitality by ([1]; β-amyloid 25-35, peptide added to fresh amyloid solution): 44%
